Results on 1 molecule are retold here after patent publication US8987249B2, “Substituted 2-Aza-bicyclo[2.2.1]heptane-3-carboxylic acid (benzyl-cyano-methyl)-amides inhibitors of Cathepsin C” (Boehringer Ingelheim International GmbH, priority 2013, dated 2015).

Amino acid sequences for entries named in this document (tags omitted). Residues count along the entry.
UniProt P53634, 25-134 limits assumed: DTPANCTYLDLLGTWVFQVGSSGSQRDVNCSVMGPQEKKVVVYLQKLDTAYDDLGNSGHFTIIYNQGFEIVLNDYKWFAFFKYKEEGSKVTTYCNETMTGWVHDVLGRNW
UniProt P53634, 231-394 limits assumed: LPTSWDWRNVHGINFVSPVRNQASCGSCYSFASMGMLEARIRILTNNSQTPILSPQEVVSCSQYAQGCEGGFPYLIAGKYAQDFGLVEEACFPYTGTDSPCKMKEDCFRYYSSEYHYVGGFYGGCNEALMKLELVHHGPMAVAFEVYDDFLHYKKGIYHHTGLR
UniProt P53634, 395-463 limits assumed: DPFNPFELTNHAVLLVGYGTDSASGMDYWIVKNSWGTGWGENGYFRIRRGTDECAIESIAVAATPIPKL
UniProt P43235, 115-329 limits assumed: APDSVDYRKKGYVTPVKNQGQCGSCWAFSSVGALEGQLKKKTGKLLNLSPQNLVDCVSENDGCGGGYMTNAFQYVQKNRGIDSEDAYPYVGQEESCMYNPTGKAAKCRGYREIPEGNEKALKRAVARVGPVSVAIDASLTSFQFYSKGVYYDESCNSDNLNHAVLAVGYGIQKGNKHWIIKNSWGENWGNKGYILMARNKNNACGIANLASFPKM

The term pIC50 denotes the negative decadic logarithm of the IC50, by convention in mol/L.

The target of series [1] is recombinant human DPPI (Cathepsin C) (Homo sapiens (Human), UniProt P53634). Nature of the series: Inhibition of human DPPI (Cathepsin C). Format: biochemical. Particulars: read-out: Inhibition of DPPI IC50, substrate Gly-Arg-AMC.
The nature of series [2]: Determination of metabolic stability with human liver microsomes. Particulars: pooled human liver microsomes, 1 μM test compound, 37° C., NADPH. (In general: Liver microsomes are a subcellular fraction often used to study metabolism.)
Series [3] deals with neutrophil elastase activity in U937 cells. As to the kind of experiment: Determination of neutrophil elastase activity in U937 cytosolic lysate preparation after incubation with test compound. To be noted: read-out: Reduction of NE-activity in U937 cells IC50.
The target in series [4] is recombinant human Cathepsin K (Homo sapiens (Human), UniProt P43235). As to the kind of experiment: Inhibition of human Cathepsin K. To be noted: read-out: Inhibition of Cathepsin K IC50, substrate Z-Gly-Pro-Arg-AMC.

pIC50: −log10 of the molar value.

Consider `N#Cc1ccc(-c2ccc(C[C@@H](C#N)NC(=O)[C@@H]3CCCCN3)cc2)cc1F`, for which the pIC50 is 7.36 in series [1], 6.97 in series [3] and 6.40 in series [4]. The “In vitro stability in human liver microsome incubations t½” value in series [2] amounted to 2 h.
